Assay outcomes from PubChem BioAssay.
ASAP1 inh – inhibitors of human ASAP1 ArfGAP activity, primary screen, biochemical, fluorescence polarization. Arf-GAP with SH3 domain, ANK repeat and PH domain-containing protein 1 (Homo sapiens), …. ASAP1-stimulated ARF1 GTP hydrolysis, GDP FP detection. inhibition, % at 16.5 µM. actives 0.19% (n = 360,000); in the data active = inhibition above about 25%;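 note: 0% = vehicle with enzyme and substrate and 100% = no enzyme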
MC4R ag barr – MC4R agonists recruiting beta-arrestin, primary screen, cell-based, luminescence, agonist arm of biased-ligand search; U2OS MC4R beta-arrestin complementation; percent of melanotan II response, DMSO zero; activation, % at 8.9 µM; actives 0.98% (n = 360,000);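 active = activation above a per-plate cutoff, the mean activation of sample wells on that plate plus 3 SD, cut at about 8% in these data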
CendR NRP1 mod – modulators of CendR peptide binding to NRP-1, primary screen, biochemical, fluorescence polarization, uHTS | Neuropilin-1 (Homo sapiens), O14786 | inhibition, % at 25 µM | FAM-RPARPAR peptide binding to NRP-1 | actives 0.85% (n = 360,000) | AID 602438, 2012;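 active = inhibition or corrected inhibition above about 18%, plus a signal ratio from 0.5 to 1.5, limit read from the data, passing the limit was not always enough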
MC4R antagonist – MC4R antagonists of cAMP signaling, primary screen, cell-based, TR-FRET, antagonist arm of biased-ligand search | actives 0.48% (n = 360,000) | inhibition, % at 6.5 µM | Melanocortin receptor 4 (Homo sapiens), P32245 | MC4R-expressing cells, MTII-stimulated cAMP, LANCE TR-FRET;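 active = inhibition above its plate's cutoff, the mean of tested wells on that plate plus 3 SD, cut at about 29% in these data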;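 note: 0% = Melanotan II alone and 100% = Melanotan II plus saturating MCL0020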
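Test system: U2OS cells stably expressing human melanocortin 4 receptor (MC4R); also added: Melanotan II challenge; compound: 6.5 µM single dose; timing: 30-min compound preincubation, 1-h Melanotan II challenge, 1-h detection, room temperature; signal: Eu-cAMP/anti-cAMP TR-FRET, emission 671 nm; repeats: one well per compound, no replicates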
Yeast UUG start – modulators of start codon recognition fidelity in yeast; AID 602363; hit rate 0.13% among 350,000; activity score, % at 18.7 µM; S. cerevisiae UUG-firefly luciferase reporter, luminescence/redox ratio;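 active = replicate mean at a twofold rise or more, about +100% in these data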;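 note: firefly luciferase made from a UUG start codon reports start codon fidelity; reporter light over untreated wells divided by growth signal over untreated wells; some hits fall short of that in this replicate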
ARFGAP1 inh – inhibitors of rat ARFGAP1 GAP activity, primary screen, biochemical, fluorescence polarization, GDP tracer; ADP-ribosylation factor GTPase-activating protein 1 (Rattus norvegicus), Q62848; Arfgap1-stimulated ARF1 GTP hydrolysis, GDP FP detection; inhibition, % at 16.5 µM; actives 0.26% (n = 360,000);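 active = inhibition above a per-plate limit, mean inhibition of low control wells plus 3 SD, cut at about 25% in these data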;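 note: 0% = DMSO wells with enzyme and 100% = wells lacking Arfgap1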
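system = rat Arfgap1 catalytic domain, aa 1-136 | technique = FP, GDP Alexa 633 tracer displaced from anti-GDP antibody, 620/688 nm | compound = one concentration, 16.5 µM, DMSO 1.26% | medium = HEPES-based buffer, pH 7.5 | timing = compound-enzyme preincubation 20 min, reaction 120 min, detection 60 min, 25 °C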
MC4R barr ag – MC4R beta-arrestin agonists, retest, confirmation, cell-based, luminescence, U2OS | actives 31% (n = 2,400) | shares compounds with MC4R ag barr | activation, % at 8.9 µM | AID 602192, 2012 | U2OS MC4R beta-arrestin recruitment; scaled DMSO 0%, Melanotan II 100%;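 active = mean activation across replicates above the hit cutoff set in the earlier primary screen, cut at about 8% in these data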
MOR DOR agonist – agonists of MOR-DOR heterodimerization, counter-screen for MC4R biased agonist project, cell-based, luminescence; shares compounds with MC4R ag barr; U2OS PathHunter beta-arrestin, beta-gal luminescence; percent of deltorphin B response, DMSO zero; activation, % at 9.2 µM; actives 5.8% (n = 2,400); AID 602194, 2012;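 active = mean activation across replicates exceeds the hit threshold derived in the earlier primary screen, cut at about 18% in these data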;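 note: 100% = deltorphin B at 0.9 µM final and 0% = DMSO alone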
The depositor's hits bear a star; x = no result. Compounds with a hit are over-represented: about 2.3% of the library has one in this group of screens.

Sequences of proteins named here, by UniProt entry; tags and fusion partners are left off.
Neuropilin-1 (Homo sapiens), O14786, UniProt O14786, whole entry, looked up: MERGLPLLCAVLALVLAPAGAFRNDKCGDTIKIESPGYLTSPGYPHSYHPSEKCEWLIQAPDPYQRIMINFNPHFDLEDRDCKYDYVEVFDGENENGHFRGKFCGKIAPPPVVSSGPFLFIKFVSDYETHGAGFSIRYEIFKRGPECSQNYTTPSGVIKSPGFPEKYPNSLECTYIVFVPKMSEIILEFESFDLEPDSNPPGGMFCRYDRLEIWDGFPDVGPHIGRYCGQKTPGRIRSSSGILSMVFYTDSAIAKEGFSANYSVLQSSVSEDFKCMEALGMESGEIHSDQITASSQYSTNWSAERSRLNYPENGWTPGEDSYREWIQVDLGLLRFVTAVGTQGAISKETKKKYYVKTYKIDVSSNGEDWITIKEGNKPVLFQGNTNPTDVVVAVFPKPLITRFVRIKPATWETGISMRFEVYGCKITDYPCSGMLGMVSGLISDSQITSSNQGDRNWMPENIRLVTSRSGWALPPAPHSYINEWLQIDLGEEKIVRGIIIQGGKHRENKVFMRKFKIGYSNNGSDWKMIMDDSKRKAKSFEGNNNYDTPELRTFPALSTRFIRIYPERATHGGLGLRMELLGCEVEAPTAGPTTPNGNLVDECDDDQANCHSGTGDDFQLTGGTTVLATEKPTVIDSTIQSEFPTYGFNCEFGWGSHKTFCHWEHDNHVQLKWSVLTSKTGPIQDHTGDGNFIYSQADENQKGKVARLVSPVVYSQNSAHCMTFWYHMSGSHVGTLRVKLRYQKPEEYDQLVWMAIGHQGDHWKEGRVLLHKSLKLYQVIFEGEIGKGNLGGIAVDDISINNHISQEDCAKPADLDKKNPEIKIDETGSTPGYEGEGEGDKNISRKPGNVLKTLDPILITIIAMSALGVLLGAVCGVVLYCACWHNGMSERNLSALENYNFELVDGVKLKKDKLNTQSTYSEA
Melanocortin receptor 4 (Homo sapiens), P32245, UniProt P32245, whole entry, looked up: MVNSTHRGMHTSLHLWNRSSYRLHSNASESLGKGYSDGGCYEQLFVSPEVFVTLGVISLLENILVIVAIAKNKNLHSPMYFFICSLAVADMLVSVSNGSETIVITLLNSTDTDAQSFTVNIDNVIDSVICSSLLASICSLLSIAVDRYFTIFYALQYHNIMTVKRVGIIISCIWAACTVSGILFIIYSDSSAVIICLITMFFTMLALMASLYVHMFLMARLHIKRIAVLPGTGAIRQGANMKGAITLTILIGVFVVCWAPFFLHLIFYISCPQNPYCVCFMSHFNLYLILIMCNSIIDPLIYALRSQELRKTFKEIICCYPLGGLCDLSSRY
ADP-ribosylation factor GTPase-activating protein 1 (Rattus norvegicus), Q62848, UniProt Q62848, whole entry, looked up: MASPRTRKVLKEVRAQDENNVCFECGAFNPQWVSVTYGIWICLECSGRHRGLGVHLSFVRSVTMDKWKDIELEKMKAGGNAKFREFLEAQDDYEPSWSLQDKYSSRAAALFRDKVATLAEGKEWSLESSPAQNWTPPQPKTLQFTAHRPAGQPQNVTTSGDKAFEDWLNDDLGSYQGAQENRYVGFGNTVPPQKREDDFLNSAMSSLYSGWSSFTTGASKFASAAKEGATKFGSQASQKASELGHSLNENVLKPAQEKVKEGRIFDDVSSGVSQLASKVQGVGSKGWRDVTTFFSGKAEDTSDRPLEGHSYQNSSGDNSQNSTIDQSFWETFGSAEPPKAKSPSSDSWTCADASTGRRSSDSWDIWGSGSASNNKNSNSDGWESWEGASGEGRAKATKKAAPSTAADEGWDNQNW

1) O=C(Nc1nnc(SCc2ccccc2)s1)c1cc2c(s1)CCCC2
2) CCSc1nnc(NC(=O)c2cc3c(s2)CCCC3)s1
3) O=C(Nc1nnc(SCc2ccc(F)cc2)s1)c1ccc2ncsc2c1
4) CCSc1nnc(NC(=O)c2csc3c2CCC(C)C3)s1 (stereo unspecified)
5) COc1ccccc1NC(=O)N1CCCCN2[C@H](C1)[C@H](c1ccc(C#CC3CC3)cc1)[C@@H]2CO
6) COCCNC(=O)C[C@H]1C[C@H]2c3cc(NC(=O)Nc4ccc(F)cc4)ccc3O[C@H]2[C@H](CO)O1
7) CO[C@@H]1CN(C)C(=O)c2ccc(NC(=O)Cc3ccccc3)cc2OC[C@@H](C)N(C)C[C@@H]1C
8) Cc1ccc(NC(=O)c2ncn(CCCN3CCN(Cc4cccc5ccccc45)CC3)n2)cc1C
Assay by compound,1,2,3,4,5,6,7,8
ASAP1 inh,-2.5,-0.5,-6.5,2.2,x,x,x,3.2
MC4R ag barr,20.2*,6.2,17.5*,-1.7,x,x,x,16.4*
CendR NRP1 mod,10.6,1.6,-12.0,-0.2,x,x,x,-9.8
MC4R antagonist,-3.1,-7.4,4.5,6.2,x,x,x,6.3
Yeast UUG start,-20.1,4.4,x,-3.1,62.5,-13.7,-8.2,1.7
ARFGAP1 inh,-9.8,8.7,-4.5,-1.4,x,x,x,-1.5
MC4R barr ag,8.3*,x,-0.6,x,x,x,x,26.2*
MOR DOR agonist,2.8,x,3.1,x,x,x,x,9.1

9) Cc1ccc(NC(=O)c2ncn(CC(=O)N[C@H](C)c3cccc4ccccc34)n2)cc1C
10) CN(C)C(=O)C[C@H]1C[C@H]2c3cc(NS(C)(=O)=O)ccc3O[C@H]2[C@H](CO)O1
11) N#Cc1cn(-c2ccccc2)nc1-c1ccccc1
12) CO/N=C/NC(=O)NOCc1ccc(Cl)cc1Cl
13) O=C(N/C=N/OCc1ccc(Cl)cc1Cl)NOCc1c(Cl)cccc1Cl
14) COCC(=O)N(C)C[C@H]1Oc2cc(C3=CCCC3)ccc2S(=O)(=O)N([C@H](C)CO)C[C@H]1C
15) C[C@H](CO)N1C[C@H](C)[C@@H](CN(C)C(=O)c2cccnc2)Oc2ncc(-c3ccc(C#N)cc3)cc2C1=O
16) COc1cc(-c2nc(-c3ccc(NC(=O)c4ccc5c(c4)OCO5)cc3)no2)cc(OC)c1OC
Assay by compound,9,10,11,12,13,14,15,16
ASAP1 inh,-7.7,x,0.5,-11.4,-2.6,x,x,10.6
MC4R ag barr,-0.4,x,11.5*,-1.3,11.9*,x,x,23.4*
CendR NRP1 mod,-11.5,x,-10.5,-21.0,-11.3,x,x,-17.3
MC4R antagonist,-8.8,x,0.5,2.1,-11.4,x,x,9.6
Yeast UUG start,-11.5,-12.9,x,-18.0,-8.0,-4.1,2.5,-12.6
ARFGAP1 inh,11.0,x,1.4,-3.8,5.8,x,x,1.7
MC4R barr ag,x,x,-1.4,x,8.1,x,x,27.8*
MOR DOR agonist,x,x,8.6,x,3.3,x,x,23.8*

Marked active in MC4R barr ag, of those listed so far:
No. | SMILES | ASAP1 inh | MC4R ag barr | CendR NRP1 mod | MC4R antagonist | Yeast UUG start | ARFGAP1 inh | MC4R barr ag
1 | O=C(Nc1nnc(SCc2ccccc2)s1)c1cc2c(s1)CCCC2 | -2.5 | 20.2* | 10.6 | -3.1 | -20.1 | -9.8 | 8.3*
8 | Cc1ccc(NC(=O)c2ncn(CCCN3CCN(Cc4cccc5ccccc45)CC3)n2)cc1C | 3.2 | 16.4* | -9.8 | 6.3 | 1.7 | -1.5 | 26.2*
16 | COc1cc(-c2nc(-c3ccc(NC(=O)c4ccc5c(c4)OCO5)cc3)no2)cc(OC)c1OC | 10.6 | 23.4* | -17.3 | 9.6 | -12.6 | 1.7 | 27.8*

(further entries)
17) Cc1ccccc1-c1nc(-c2ccc(NC(=O)c3ccc4c(c3)OCO4)cc2)no1
18) Cc1noc(C)c1NC(=O)Nc1ccc2c(c1)CC(=O)N([C@H](C)CO)C[C@@H](C)[C@@H](CN(C)C(=O)Nc1ccccc1)O2
19) COc1ccc(CN(C)C[C@H]2OCCCC[C@@H](C)Oc3ccc(NS(=O)(=O)c4ccc(C)cc4)cc3C(=O)N([C@H](C)CO)C[C@H]2C)cc1
20) O=c1c2cc(Cl)ccc2[nH]c(=S)n1Cc1cccs1
21) O=c1c2cc(Cl)ccc2[nH]c(=S)n1Cc1ccco1
22) O=C(Cc1cccs1)Nc1ccc(-c2nnc(-c3ccco3)o2)cc1
23) O=C(Cc1cccs1)Nc1ccc(-c2nnc(-c3ccccc3)o2)cc1
24) Cc1ccc(S(=O)(=O)N[C@H]2CC[C@@H](CCNC(=O)C3CC3)O[C@@H]2CO)cc1
Assay by compound,17,18,19,20,21,22,23,24
ASAP1 inh,2.6,x,x,0.1,1.4,-2.2,-16.3,x
MC4R ag barr,23.3*,x,x,10.0*,5.1,11.1*,0.4,x
CendR NRP1 mod,-0.2,x,x,17.3,11.6,14.5,-14.7,x
MC4R antagonist,15.3,x,x,-0.4,18.7,7.0,4.0,x
Yeast UUG start,-11.9,12.2,26.0,-10.5,-24.0,x,-20.1,8.1
ARFGAP1 inh,4.8,x,x,2.2,0.9,-7.9,-0.1,x
MC4R barr ag,17.0*,x,x,-0.3,x,4.0,x,x
MOR DOR agonist,4.5,x,x,3.5,x,6.3,x,x

25) N#Cc1c(N)c(C#N)c(-c2ccc3c(c2)OCO3)c2c1CCCC2
26) C#CCn1c(=NC(=O)c2cc(-c3cccs3)nc3ccccc23)sc2cc(S(N)(=O)=O)ccc21
27) C#CCn1c2ccccc2c2nc3ccccc3nc21
28) COc1ccc2oc(C(=O)OCC(=O)Nc3ccccc3)c(C)c2c1
29) COc1ccc2oc(C(=O)Nc3ccccn3)c(C)c2c1
30) COc1ccc2oc(C(=O)OCC(=O)Nc3ccccc3OC)c(C)c2c1
31) COc1ccc2oc(C(=O)Nc3ccc(C)cn3)c(C)c2c1
32) CCOc1ccc2oc(C(=O)OCC(=O)NCc3ccc(OC)cc3)c(C)c2c1
Assay by compound,25,26,27,28,29,30,31,32
ASAP1 inh,6.4,1.7,-0.6,-0.7,7.5,x,-4.3,8.3
MC4R ag barr,10.3*,20.1*,10.7*,-2.1,-4.2,13.8*,12.7*,29.7*
CendR NRP1 mod,-40.1,-28.2,-2.2,-0.6,-10.1,1.8,-8.3,-5.5
MC4R antagonist,5.3,4.8,-1.6,-3.1,-12.9,-5.6,-4.4,-2.8
Yeast UUG start,-9.8,x,x,-11.1,-48.8,-20.3,-2.9,-15.1
ARFGAP1 inh,-6.1,6.9,-1.9,-6.7,3.6,x,3.6,12.2
MC4R barr ag,1.5,10.3*,-0.3,x,x,4.4,5.5,1.2
MOR DOR agonist,4.0,5.5,4.9,x,x,3.7,5.4,7.0

33) CCCNC(=O)NC(=O)COC(=O)c1oc2ccc(OCC)cc2c1C
34) CCOC(=O)c1cc(NC(=O)N2CCCc3ccccc32)c(C)nc1C
35) Cc1nc(C)c(NC(=O)N2CCc3ccccc32)cc1NC(=O)N1CCc2ccccc21
36) CCOC(=O)c1c(N)sc(C(O)(C(F)(F)F)C(F)(F)F)c1-c1ccc(F)cc1
37) Cc1noc(C)c1S(=O)(=O)N(C)C[C@H]1Oc2ccc(NC(=O)Nc3cccc4ccccc34)cc2CC(=O)N([C@@H](C)CO)C[C@@H]1C
38) CCc1ccc(NC(=O)CSc2nnc(-c3n[nH]c4ccccc34)n2-c2ccccc2)cc1
Assay by compound,33,34,35,36,37,38
ASAP1 inh,7.4,-6.9,1.0,6.7,x,15.8
MC4R ag barr,2.1,1.3,24.7*,11.1*,x,10.0*
CendR NRP1 mod,15.4,2.4,1.8,10.0,x,-9.0
MC4R antagonist,11.7,2.0,19.3,2.1,x,3.8
Yeast UUG start,-5.8,-6.3,-9.4,3.3,-22.8,x
ARFGAP1 inh,-5.9,4.1,7.2,8.0,x,-3.1
MC4R barr ag,x,x,-2.9,4.6,x,5.2
MOR DOR agonist,x,x,0.5,8.3,x,8.7
